# Test results taken from paper PMC11582101, “Unlocking the potential: unveiling tyrphostins with Michael-reactive cyanoacrylate motif as promising inhibitors of human 5-lipoxygenase” (Pflugers Archiv, 2024).
# Target: T1, 5-LO (Homo sapiens, UniProt P09917)
# T1 sequence (P09917 1-674): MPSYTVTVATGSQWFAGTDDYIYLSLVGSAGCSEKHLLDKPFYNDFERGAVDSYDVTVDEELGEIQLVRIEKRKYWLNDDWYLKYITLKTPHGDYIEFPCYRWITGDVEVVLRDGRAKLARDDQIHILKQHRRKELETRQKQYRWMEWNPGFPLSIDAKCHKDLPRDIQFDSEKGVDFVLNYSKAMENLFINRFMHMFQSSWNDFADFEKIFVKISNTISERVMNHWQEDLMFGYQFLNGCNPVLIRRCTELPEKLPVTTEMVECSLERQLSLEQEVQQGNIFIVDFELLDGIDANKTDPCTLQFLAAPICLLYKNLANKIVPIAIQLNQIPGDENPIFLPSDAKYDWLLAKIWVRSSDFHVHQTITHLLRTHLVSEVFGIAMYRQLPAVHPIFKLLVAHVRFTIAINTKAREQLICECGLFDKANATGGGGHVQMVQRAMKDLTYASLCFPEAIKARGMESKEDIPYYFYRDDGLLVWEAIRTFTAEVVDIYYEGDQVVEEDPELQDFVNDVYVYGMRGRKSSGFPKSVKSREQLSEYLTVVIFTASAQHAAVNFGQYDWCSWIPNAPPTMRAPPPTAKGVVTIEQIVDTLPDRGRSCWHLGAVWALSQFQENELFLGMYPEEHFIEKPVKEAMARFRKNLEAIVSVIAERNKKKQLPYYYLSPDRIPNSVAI
# Assay: 5-LO product formation in intact PMNL
# Details: read-out: IC50 for inhibition of 5-LO product formation, PMNL
substance,measurement,value
AG825,pIC50,4.77

# pIC50: −log10 of the molar value.
